Data from patent US7064133B2, “Quinoline derivatives process of synthesis and medicaments containing these derivatives” (Bioalliance Pharma, priority 2001, dated 2006).

How the values were obtained:
CEM = test: Cytotoxicity, MTT to formazan test, cells in suspension; format: cell-based; conditions: at 500 μM
Experimental: (§1) The toxicity of the compounds is evaluated by a test of biotransformation of MTT to formazan by cellular mitochondrial dehydrogenases.

HeLa = test: Cytotoxicity, MTT to formazan test, adherent cells; format: cell-based; conditions: at 500 μM
Experimental: as §1

## sodium 2-(2,3,4-dihydroxybenzylcarbamoyl)-8-hydroxyquinoline-7-carboxylate [BioA162]
CEM
  cytotoxicity (MTT): lacks cytotoxicity
HeLa
  cytotoxicity (MTT): lacks cytotoxicity
